# Laboratory results published in patent US7267977B2, “Peripheral-type benzodiazepine receptor: a tool for detection, diagnosis, prognosis, and treatment of cancer” (Georgetown University, priority 1998, dated 2007).
# Chains of the proteins cited; added tags and fusions are not shown. Residues count along the entry.
# UniProt P30536, 2-169: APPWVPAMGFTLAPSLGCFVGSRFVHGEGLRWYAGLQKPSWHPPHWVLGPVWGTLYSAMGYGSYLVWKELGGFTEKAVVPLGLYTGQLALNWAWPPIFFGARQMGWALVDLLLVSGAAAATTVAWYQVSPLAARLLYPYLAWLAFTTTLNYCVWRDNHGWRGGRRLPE
# Key:
# [1] = target: T1, peripheral-type benzodiazepine receptor (PBR) (Homo sapiens, UniProt P30536); assay: [3H]PK11195 binding to isolated nuclei (Scatchard analysis)
# T1 construct: Cells were scraped from 150 mm culture dishes into 5 ml phosphate buffered saline (PBS); endogenous in cells; host or cells: MDA-231, MCF-7 and MCF-7ADR (ADR) human breast cancer cells, whole cells or isolated nuclei
# Experimental: (§1) Radioligand Binding Assays—Cells were scraped from 150 mm culture dishes into 5 ml phosphate buffered saline (PBS), dispersed by trituration, and centrifuged at 500×g for 15 min. Cell pellets were resuspended in PBS and assayed for protein concentration. […] Scatchard plots were analyzed by the LIGAND program [Munson, (1980) Anal. Biochem. 107:220]. […] IC50 estimation was performed using the LIGAND program (Munson, 1980, supra).
# Nuclear Uptake of ^3H-Cholesterol—Nuclei were isolated from MDA-231, MCF-7, and as described by Elango et al (1997). […] Samples were then centrifuged at 500×g for 30 min and pellets were washed in […] ice-cold PBS. After a second centrifugation at 500×g for 30 min, 200 ul 1.0 N NaOH was then added to the pellets and incubated overnight at 37° C. After incubation, 200 ul 1.0 N HCl was added and samples were vigorously vortexed. 3 ml scintillation cocktail (Eco-Lite) was then added prior to reading radioactivity on a Wallac 1409 Liquid Scintillation Counter.
# [2] = target: T1, peripheral-type benzodiazepine receptor (PBR); assay: [3H]PK11195 radioligand binding to whole cells (Scatchard analysis, competition); conditions: 50 μg protein, [3H]PK11195, Scatchard plot
# Experimental: as §1
smiles,measurement,setting,value
CCC(C)N(C)C(=O)c1cc2ccccc2c(-c2ccccc2Cl)n1 (stereo not shown) [PK11195],Kd,[1]; nuclei isolated from MCF-7 cells,7.6 ± 4.6 nM
same,Kd,[1]; nuclei isolated from MDA-231 cells,10.3 ± 8.4 nM
same,Kd,[2]; ADR (MCF-7ADR) cells,1.9 ± 0.47 nM
same,Kd,[2]; MDA-231 cells,7.8 ± 1.8 nM
